# PMC3465557, “Mixed antagonistic effects of the ginkgolides at recombinant human ρ1 GABAC receptors” (Neuropharmacology, 2012)
# Sequences of proteins named here, by UniProt entry; tags and fusion partners are left off. Residues count along the entry.
# UniProt P24046, 22-479: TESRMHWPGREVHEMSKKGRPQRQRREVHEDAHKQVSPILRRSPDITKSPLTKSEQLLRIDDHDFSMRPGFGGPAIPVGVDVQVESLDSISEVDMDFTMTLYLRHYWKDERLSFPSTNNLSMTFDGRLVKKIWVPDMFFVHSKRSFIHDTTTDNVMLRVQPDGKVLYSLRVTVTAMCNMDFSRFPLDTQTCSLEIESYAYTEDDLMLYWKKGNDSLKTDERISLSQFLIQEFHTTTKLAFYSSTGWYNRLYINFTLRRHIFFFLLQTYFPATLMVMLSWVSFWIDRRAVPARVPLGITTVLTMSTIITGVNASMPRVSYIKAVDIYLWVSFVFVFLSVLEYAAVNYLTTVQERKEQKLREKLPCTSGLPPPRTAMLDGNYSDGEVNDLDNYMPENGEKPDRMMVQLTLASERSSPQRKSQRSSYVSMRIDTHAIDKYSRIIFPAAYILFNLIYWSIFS
# Where two headings read alike, the source gives them in different places.
# How the values were obtained:
# [1] = molecular target: T1, recombinant human ρ1 GABAC receptors (Homo sapiens, UniProt P24046); test: Inhibition curves: ginkgolides co-applied with a fixed GABA concentration, two-electrode voltage clamp in Xenopus oocytes; format: cell-based
# T1 construct: expressed in transfected cells; host or cells: Xenopus laevis oocytes (cRNA injection)
# Procedure: Human ρ1 GABAC receptor subunit cDNA was linearized using the restriction enzyme Xba 1 and transcribed using the “mMESSAGE mMACHINE” kit (Ambion Inc., Austin, TX, USA). RNA (10 ng/50 nl) was injected into the cytoplasm of defollicated oocytes using a 15–20 μm diameter tip glass micropipette Nanoject injector (Drummond Scientific Co., Broomali, PA, USA). The oocytes were incubated for 2–7 days at 18 °C in ND96 buffer with a twice-daily change of buffer.
# Whole-cell currents from homomeric ρ1 GABAC receptors expressed in oocytes were recorded using two-electrode voltage clamp. Recording microelectrodes were fabricated with a micropipette puller (Narishige Scientific Instrument Lab, Tokyo, Japan) and filled with 3 M KCl solution. Oocytes were clamped at −60 mV and continuously superfused with ND96 buffer. […] […]. Co-applications of ginkgolides were interleaved with test applications of GABA alone to monitor the response throughout the experiment. […] A washout period of 3–5 min was allowed between each application.
# Analysis and curve fitting was performed using GraphPad Prism v3.02 (GraphPad Software, San Diego, California, USA). […] […]. […] Unless otherwise noted, parameters were calculated from individual oocytes and then averaged.
# [2] = molecular target: T1, recombinant human ρ1 GABAC receptors; test: Fit of kinetic schemes 1-4 to equilibrium GABA concentration–response curves; format: cell-based
# From the text: The concentration–response curves were fitted with the different mechanisms of inhibition using a least squares non-linear regression in GraphPad Prism.
# The mechanism used (Fig. 7, Scheme 1) is that of [Amin and Weiss (1996)], where there are five equivalent agonist binding sites and three sites need to be occupied to activate the receptor, leading to a single open state. […] This assumes five equivalent agonist binding sites but only three are required to be occupied to activate (open) the channel pore. All subsequent kinetic schemes are derivatives of the linear scheme, by incorporating different possible mechanisms for antagonism by ginkgolides. These are drawn from the cyclic mixed-antagonism mechanism described by [Smart and Constanti (1986)]. Scheme 2 and scheme 3 both assume that ginkgolide binds to a single site in the receptor complex. […] For scheme 4, the equilibrium between the fully-liganded closed and open states is removed, which allows for the possibility that the ginkgolide binds to a separate site in the closed state compared to the open state.
# Initially, a cyclic allosteric mechanism (Fig. 7, scheme 2) similar to that of [Smart and Constanti (1986)] was fit to the data. This scheme assumes a single binding site on the receptor complex that has an allosteric effect on all rate constants in the reaction mechanism. The scheme was fitted to the data allowing the agonist equilibrium constant, Ka, to be related to the equilibrium constant in the presence of ginkgolide, Ka′ by a constant ratio, R = Ka/Ka′. Similarly, the opening equilibrium constants E and E′ were related by the ratio, S = E/E′. […] As a test of the mechanism, the parameters obtained from the fit were used to predict the inhibition curves (Fig. 8D–F).
# This effectively means that ginkgolide is binding at two separate sites. […] Scheme 4 is therefore functionally similar to scheme 2 with E′ having a value close to zero.
substance,measurement,setting,value
ginkgolide B,IC50,[1]; 0.5 μM GABA,0.75 ± 0.07 µM
same,IC50,[1]; 1.2 μM GABA,2.37 ± 0.22 µM
same,IC50,[1]; 3.0 μM GABA,5.72 ± 0.63 µM
same,IC50,[1]; 10 μM GABA,129 ± 21.6 µM
same,Kd,"[2]; Scheme 2, calculated, read-out: Kb0",0.2 µM
same,Kd,"[2]; Scheme 2, calculated, read-out: Kb3",4.1 µM
same,Kd,"[2]; Scheme 2, fitted, Ka fixed 3.2 μM, E fixed 11, read-out: Kb4 (equilibrium constant of ginkgolide, open state)",35.2 ± 5.4 µM
same,Kd,"[2]; Scheme 3, calculated, read-out: Kb0",0.3 µM
same,Kd,"[2]; Scheme 3, calculated, read-out: Kb3",16.7 µM
same,Kd,"[2]; Scheme 4, calculated, read-out: Kb0",0.2 µM
same,Kd,"[2]; Scheme 4, fitted, Ka fixed 3.2 μM, E fixed 11, read-out: Kb4 (equilibrium constant of ginkgolide, open state)",35.2 ± 5.4 µM
same,Kd,"[2]; Scheme 4, printed with ±SE, read-out: Kb3",4.1 ± 0.5 µM
